In patent US20080081801A1, “PORPHYRIN OXYGEN INFUSION FOR INCREASING CONCENTRATIONS IN TUMOR TISSUES” (priority 2002, published 2008):

System: Ascites hepatoma LY80
Test: Oxygen partial pressure in tumor tissues of tumor-bearing rats after intra-arterial injection of the sample (phosphorescence quenching, PdPor, OxySpot)
Assay type: in vivo, Donryu rats
Conditions: oxygen-saturated sample
Procedure: Animals with cancer were prepared by transplanting tumor cells in desired sites of laboratory animals such as, for example, rats, hamsters, rabbits or beagles. The following is an explanation on transplantation of tumor cells into right femurs of rats.
Rats were bred for several days until tumors develop and then subjected to experiments under anesthesia (e.g., using Nembutal, diethyl ether or halothane anesthetic gas). Rats were intubated through the cervical trachea and ventilated under positive pressure by a respirator. A polyethylene catheter was inserted into a left carotid artery so that a distal end of the catheter is located at a position short of a bifurcation of the common iliac artery, and then backward cannulation was carried out to provide an administration rout of sample in the descending aorta.
The oxygen partial pressure in the tumor tissues may be determined by intravenously injecting a phosphorescent probe (palladium coproporphyrin (PdPor)), irradiating light, and monitoring a phosphorescence quenching time with an oxygen partial pressure monitor. […] The oxygen partial pressure in the tumor site of the right leg was measured at 5 to 30 points in air or an atmosphere containing 99% oxygen with a device for measurement of an oxygen partial pressure (e.g., OxySpot (Trademark) made by Medical System Corp.), and served as controls. […]

human serum albumin: serum albumin, injected oxygen-saturated without porphyrin
change in the oxygen partial pressure (PO2) in the tumor tissue: no change
